Measured values as given in ChEMBL document CHEMBL1141989, “Amino acid conjugates as kappa opioid receptor agonists” (Bioorg Med Chem Lett, 2005).

The chains behind the UniProt entries cited, without tags or fusion partners. Where a name states a change or a piece, a line headed by the entry shows the natural chain unless it says otherwise.
UniProt P41145: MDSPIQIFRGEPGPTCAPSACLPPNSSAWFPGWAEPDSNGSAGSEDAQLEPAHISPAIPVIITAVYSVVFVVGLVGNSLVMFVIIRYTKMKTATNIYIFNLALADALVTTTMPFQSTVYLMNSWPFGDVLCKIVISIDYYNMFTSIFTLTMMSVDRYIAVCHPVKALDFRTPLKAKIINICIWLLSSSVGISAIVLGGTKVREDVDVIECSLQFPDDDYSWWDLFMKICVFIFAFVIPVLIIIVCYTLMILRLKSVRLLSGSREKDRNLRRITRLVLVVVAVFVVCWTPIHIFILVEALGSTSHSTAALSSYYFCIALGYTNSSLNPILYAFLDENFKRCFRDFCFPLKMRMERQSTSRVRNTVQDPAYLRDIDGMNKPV

Target: Kappa-type opioid receptor (Homo sapiens, UniProt P41145)
Assay: In vitro binding affinity for human kappa opioid receptor was determined by using [3H]diprenorphine as radioligand

**Q.** With CN(C(=O)Cc1ccc(Cl)c(Cl)c1)[C@H](CN1CCCC1)c1ccccc1 as the molecule, how does the Ki read?
**A.** Its Ki is 0.043 nM.
